Laboratory results: ChEMBL document CHEMBL5528015, “Structure-based design of SARS-CoV-2 papain-like protease inhibitors” (Eur J Med Chem, 2024)

Tests used:
[1] = in vitro; conditions: mouse, liver microsomes
[2] = Metabolic stability in mouse liver microsomes assessed as intrinsic clearance at 1 uM measured upto 60 mins in presence of NADPH regenerating system by LC-MS/MS analysis; assay type: ADME, Microsome; conditions: read-out: CLH

Row | SMILES | half-life at 1 h, 1 µM [1] [min] | microsomal CLint at 1 µM [2] [µL/min/mg]
1 | Cc1ccc(O)cc1CN(C)[C@H](C)c1cccc2ccccc12 | 0.6 | –
2 | Cc1ccc(N)cc1C(=O)N[C@H](C)c1cccc2ccccc12 | – | 67.4
3 | C[C@H](c1cccc2ccccc12)N(C)Cc1ccc2[nH]ncc2c1 | 3.2 | 429
